Values quoted from earlier work in patent publication US20260174791A1, “MACROPHAGE MIGRATION INHIBITORY FACTOR (MIF) TARGETING FOR THE TREATMENT OF NON-SMALL CELL LUNG CANCER” (Board of Regents, The University of Texas System, priority 2022, published 2026).

Key:
ALK-positive disease = conditions: patients with ALK-positive disease, clinical studies; cited from earlier work
advanced NSCLC = conditions: combined chemotherapy including cetuximab vs standard chemotherapy alone; cited from earlier work

With `C[C@@H](Oc1cc(-c2cnn(C3CCNCC3)c2)cnc1N)c1c(Cl)ccc(F)c1Cl` [Crizotinib] as the compound, how does the response rates (ALK-positive disease) read?
The response rates was “around 60%”.

With cetuximab as the compound, how does the overall survival (advanced NSCLC) read?
The overall survival was “more effective at improving a person's overall survival”.
